# scFv variants of Ab-14 (heavy chain) against a SARS-CoV-2 spike peptide

From the AlphaSeq antibody data of Engelhart et al. 2022 (doi:10.1038/s41597-022-01779-4), copy in the FLAb collection.

All variants were tested on one target, the spike HR2 peptide PDVDLGDISGINAS (SARS-CoV-2).

The variants keep the light chain, the linker and the frameworks of Ab-14 (scFv order VH, a (GGGGS)3 linker, VL).
VH: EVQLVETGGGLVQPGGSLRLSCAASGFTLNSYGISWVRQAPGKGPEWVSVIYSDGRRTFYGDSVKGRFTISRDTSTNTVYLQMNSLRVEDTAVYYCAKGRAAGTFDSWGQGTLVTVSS
VL: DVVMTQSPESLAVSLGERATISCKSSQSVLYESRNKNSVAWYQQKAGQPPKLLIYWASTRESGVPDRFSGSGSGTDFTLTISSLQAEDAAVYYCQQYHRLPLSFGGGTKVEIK

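The parent was found by panning a naive human phage display library on the peptide. In library AAYL49, one, two or three CDR residues were substituted; doubles and triples were drawn at random. The scFvs were displayed on barcoded MATa yeast, the peptide on MATalpha yeast. After mating in shaken culture at 30 °C for 16 h, diploids were selected and their barcode pairs sequenced. Scores were corrected for input abundance and mapped to Kd with protein pairs of known affinity run in the same pool. There are three technical replicates.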

Variants are written as CDR1, CDR2 and CDR3 of the heavy chain (limits as in the source). Parent: GFTLNSYGIS, VIYSDGRRTFYGDSVK, GRAAGTFDS. Scale: log10 of Kd in nM, estimated from mating counts; low values are strong binders. A mean of the replicates is given; it leaves out those without a signal. A pair that was not seen in that replicate is written "nd"; this usually means weak binding, but a binder can also be missed. For reference, the parent read 0.65 as the reference entry and 4.11 (one replicate of three) as a member of this library.

| # | CDR-H1 | CDR-H2 | CDR-H3 | log10 Kd (nM) by replicate | log10 Kd (nM), mean | signal with controls |
|---|---|---|---|---|---|---|
| 1 | GFTNNSYGIS | VIYSDGRRTFYGASVK | GRVAGTFDS | nd nd nd | nd | 0 of 9 |
| 2 | GFTLNTYGIS | IIYSDGRRTFYGDSVK | ARAAGTFDS | 3.90 3.61 4.73 | 4.08 | 9 of 9 (4.93) |
| 3 | KDTLNSYGIS | QIYSDGRRTFYGDSVK | GRAAGTFDS | nd nd nd | nd | 0 of 9 |
| 4 | GFTLNSYFIS | VIYSDGRRTFYGDSVK | IRAGGTFDS | nd 3.68 nd | 3.68 | 1 of 9 (4.81) |
| 5 | AFTLNAYGIS | VIYSDGRRTFYGDSQK | GRAAGTFDS | nd nd nd | nd | 0 of 9 |
| 6 | GFTLNSYGIS | RIYSDGRRYFYGDSVC | GRAAGTFDS | nd nd nd | nd | 0 of 9 |
| 7 | GFTLNVPGPS | VIYSDGRRTFYGDSVK | GRAAGTFDS | nd nd nd | nd | 0 of 9 |
| 8 | GFTLNVGGIS | VIYSDGRRTFYGDSTK | GRAAGTFDS | nd 2.71 5.86 | 4.29 | 5 of 9 (3.98) |
| 9 | GFTLTSYGIS | VLYSDGRRTFYGDSVG | GRAAGTFDS | 3.42 nd nd | 3.42 | 1 of 9 (2.93) |
| 10 | GFTLNSYGIS | VIYSDGRATFYGDGVK | GRAANTFDS | 3.11 nd nd | 3.11 | 0 of 9 |
| 11 | GFTLNSYGIN | VINSDGRRTFYHDSVK | GRAAGTFDS | nd nd nd | nd | 1 of 9 (4.61) |
| 12 | GFTLMAYGIS | VIYMDGRRTFYGDSVK | GRAAGTFDS | nd nd nd | nd | 4 of 9 (4.69) |
| 13 | GFTLNSYGIS | VIYSDGVRTFYGDSVK | GRAATTFDS | 1.12 0.87 1.02 | 1.01 | 0 of 9 |
| 14 | PFTLNSSGIS | VIYSDGRRTFYGDSVK | IRAAGTFDS | nd nd nd | nd | 0 of 9 |
| 15 | GFTMNSYGPS | VIYSDGTRTFYGDSVK | GRAAGTFDS | 4.20 4.68 3.78 | 4.22 | 3 of 9 (3.40) |
| 16 | IFTLNSYGIS | NIYSDGRRTFYQDSVK | GRAAGTFDS | nd nd nd | nd | 0 of 9 |
| 17 | GFTLNSYGIS | VIYSDGRRTFYGDSVK | CWAAGTFES | nd nd nd | nd | 0 of 9 |
| 18 | GFTFNSYGIS | VIYSDGRRTFYGDSVK | GRKAQTFDS | nd nd 4.93 | 4.93 | 1 of 9 (3.00) |
| 19 | GFTLNSYGIS | VIASDGRRTFYGDSAK | GRAAGTPDS | nd 4.74 5.12 | 4.93 | 5 of 9 (5.06) |
| 20 | GFTLNSYGIS | VIYSDGRGTFYGDYVK | GRASGTFDS | 4.12 3.30 nd | 3.71 | 5 of 9 (4.23) |
| 21 | GFTLNSYGIS | VIYSDKRRTFYGDSVK | GRAIGTFVS | nd nd nd | nd | 0 of 9 |
| 22 | GFTYNSYGIS | VIYSDGRRTPYGDSVK | GRAAGTFDS | nd 3.40 nd | 3.40 | 1 of 9 (2.74) |
| 23 | GFTLGSYGIS | VIYSDGRRTFYGDSEK | GRAAGTFDS | 4.00 nd nd | 4.00 | 0 of 9 |
| 24 | GFTLNSYGIS | VLYSDGRRTFYGSSVW | GRAAGTFDS | 2.91 3.40 2.54 | 2.95 | 0 of 9 |
| 25 | GFELNSYGIS | VIYSNGRRTFYGDSVK | GRAAGTFTS | nd nd nd | nd | 0 of 9 |
| 26 | GFTLNSYGCS | VIYSKGRRTFYGDSVK | GEAAGTFDS | nd 3.85 nd | 3.85 | 1 of 9 (4.23) |
| 27 | GFTLNSYGIS | VIYSDGRRTFYGDSNK | GGFAGTFDS | nd 3.53 5.66 | 4.60 | 1 of 9 (3.69) |
| 28 | GFFGNSYGIS | VIYSDGRRTFYGDSGK | GRAAGTFDS | 5.88 nd nd | 5.88 | 1 of 9 (4.31) |
| 29 | GFILNSYGES | VIYSDGRRTFYGDSVK | GRAAGTPDS | nd 2.53 nd | 2.53 | 0 of 9 |
| 30 | GFTLNSYWIS | VIYSDCRRTFYGDSGK | GRAAGTFDS | nd nd nd | nd | 0 of 9 |
| 31 | GFTLNSYLIS | VIYSDSRRTFYGDSVN | GRAAGTFDS | nd 4.75 4.13 | 4.44 | 2 of 9 (3.96) |
| 32 | GFTLNFYGIS | PIYSDGRRTFYGNSVK | GRAAGTFDS | 4.93 nd 4.44 | 4.68 | 5 of 9 (4.21) |
| 33 | GFTLNSNGIS | VIYSDGRRTFRGDSVK | GWAAGTFDS | 4.87 3.70 5.28 | 4.62 | 4 of 9 (4.74) |
| 34 | GFTLNSYEIS | VIYSDGRRTFYGDSVK | GRAAGTFFS | 3.04 nd 3.14 | 3.09 | 0 of 9 |
| 35 | GFTLNSYGIS | VIYSDGRRTFLGDSMK | GRCAGTFDS | 3.75 2.36 2.87 | 3.00 | 1 of 9 (2.62) |
| 36 | GFTDNSYGIS | VIYSDGRRTFYGDSVK | GRAAGTFDI | 4.15 nd nd | 4.15 | 0 of 9 |
| 37 | GFTLNSYGIS | VIYADGRRTFYGDSVK | GRAAGTFDS | -0.14 0.09 -0.12 | -0.06 | 1 of 9 (4.84) |
| 38 | GFTLNSYGIS | AISSDGRRTFYGDSVK | GRAAGTFDS | nd 4.48 5.45 | 4.97 | 6 of 9 (4.77) |
| 39 | GFTLLSYGIS | VIYSDGQRTFYGDSVH | GRAAGTFDS | 1.93 1.87 1.83 | 1.88 | 0 of 9 |
| 40 | YFELNSYGIS | VIYSDGRRAFYGDSVK | GRAAGTFDS | nd nd nd | nd | 2 of 9 (4.43) |
| 41 | GFTPNVYGIS | VIYSDGRRTFYGDSVK | GRAAGWFDS | 5.01 3.89 nd | 4.45 | 3 of 9 (4.47) |
| 42 | GFTLNEYGIS | VIYSEGRRTFYGDSRK | GRAAGTFDS | nd nd nd | nd | 2 of 9 (4.09) |
| 43 | GYTANSYGIS | VIYSDGRRTFYGDSVK | GRAQGTFDS | 4.07 4.80 3.90 | 4.25 | 3 of 9 (4.56) |
| 44 | GFTLNSYGIS | VDYSDGRRTFYIDSVK | GRAAGTTDS | nd nd nd | nd | 0 of 9 |
| 45 | GFTLNSIGIS | EIESDGRRTFYGDSVK | GRAAGTFDS | nd nd 5.46 | 5.46 | 2 of 9 (3.99) |

Nonspecific signal, from three strains lacking the peptide, appeared in 15% of pairings of library AAYL49, centred on 4.06 (5% of these signals below 2.83); values are not corrected for it. The control count says in how many pairings with the empty strains this scFv gave a signal, with their mean in brackets.